Measured values published in patent US20030229066A1, “Novel heterocyclic urea derivatives and their use as dopamine D3 receptor ligands” (priority 2001, published 2003).

Chains of the proteins cited; added tags and fusions are not shown.
UniProt P35462, whole entry: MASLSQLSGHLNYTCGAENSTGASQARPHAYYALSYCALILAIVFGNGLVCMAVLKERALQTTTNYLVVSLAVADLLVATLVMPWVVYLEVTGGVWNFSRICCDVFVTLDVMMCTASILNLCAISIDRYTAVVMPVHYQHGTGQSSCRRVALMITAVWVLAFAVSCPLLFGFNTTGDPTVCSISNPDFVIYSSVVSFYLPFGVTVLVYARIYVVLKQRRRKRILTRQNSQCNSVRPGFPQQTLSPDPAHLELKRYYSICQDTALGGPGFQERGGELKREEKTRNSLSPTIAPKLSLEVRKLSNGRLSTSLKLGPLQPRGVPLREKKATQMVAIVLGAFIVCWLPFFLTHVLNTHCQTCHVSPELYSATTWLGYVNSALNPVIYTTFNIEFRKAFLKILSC

Target: cloned human dopamine D3 receptors (Homo sapiens, UniProt P35462)
Test: [N-Methyl-3H]Spiroperidol binding to cloned human dopamine D3 receptors
Conditions: read-out: D3 Ki
Description: [N-Methyl-^3H]Spiroperidol Binding to Cloned Human Dopamine D3 Receptors
This assay measures the in vitro activity of compounds on cloned human dopamine (D3) receptors and predicts the direct dopamine-blocking properties of putative neuropsychiatric agents at human dopamine D3 receptors.
The D3 gene was isolated from a human striatal cDNA library (Stratagene). The gene was sequenced and sub-cloned into the expression vector RC/RSV (Invitrogen). CHO (Chinese Hamster Ovary) cells were stably transfected with 10 μg of the D3/RSV plasmid using the DOTAP method from Boehringer Mannheim and 72 clones that were G418 resistant were isolated. Using mRNA and binding displacement data a single high expressing clone was identified. This clone was then grown in large batches for the purpose of developing a 96 well format assay.
The cells are harvested into 250 ml centrifuge tubes with 100 volumes of cold phosphate buffered saline (PBS) and spun down (1200×G for 10 min at 4° C.). The medium is removed and 100 ml PBS are added to each centrifuge tube, cells are resuspened and spun down again. The PBS is removed and the final pellet is homogenized in an appropriate volume of 10% DMSO with a polytron on ice at a medium setting.
For Kj determinations: [^3H]NMSP is made up to a concentration of 2.7 nM in buffer 2b, such that when 150 μl is added to each tube a final concentration of 0.4 nM is attained in the 1 ml assay. Samples of total CPM added are taken for each experiment to calculate the total ligand concentration.
5. S(-)-Eticlopride is obtained from Research Biochemicals International (RBI catalog number E-101). A refrigerated stock (good for up to a month) solution of S(-)-eticlopride is made at a concentration of 30 μM in buffer 2b. One hundred microliters are added to 3 wells for the determination of nonspecific binding (this yields a final concentration of 3 μM in the 1 ml assay).
For most assays, a 100 μM stock solution of the test compound is made up in a suitable solvent (usually <0.1% acetic acid) and serially diluted with buffer 2b, such that when 100 μl of drug is combined with the total 1 ml assay, final concentrations ranging from 10^−5-10^−8 M are attained. Characteristically eight concentrations are studied for each assay; however, higher or lower concentrations may be used, depending on the potency of the drug.
The 96-Well Packard Unifilters GF/B are incubated for >1 h at 25° C. in 0.1% polyethylamine (from 3,b). The cold tissue is added last and mixed on a orbital shaker for a few seconds and is then incubated at 37° C. for 30 min in a shaking water bath. The assay is stopped by rapid filtration through Packard Unifilter plates. The filter membranes are then washed with 15 ml of ice-cold 0.05 M Tris buffer. The filters are then dried (˜15 min under a heat lamp or incubated for 15 min in a 60° C. oven) and a bottom seal is applied. Then 40 μl of Packard Microscint 20 scintillation cocktail is added and a permanent topseal (Type P) is applied and heat sealed. The plates are then shaken on an orbital shaker for 1 h and placed in the Packard Topcount and counted for at least 5 minutes for each point.
Specific binding is defined as the difference between total binding and the binding in the presence of 3 μM S-(-)-eticlopride. Total binding is approximately 10% of the total added ligand. Cheng-Prusoff determination (Kj's) are performed using Prism software using a one-site competition curve analysis where the top and the bottom of the non-linear regression are held constant at 0% and 100% percent inhibition. The percent inhibition at each drug concentration is the mean of duplicate determinations.

Row | Ki [nM] | SMILES
1 | 0.88 | CN(C)CCCNC(=O)NC[C@@H]1C[C@H]1CN1CCN(c2csc3cc(C(F)(F)F)ccc23)CC1
2 | 6.51 | O=C(NCCCCN1CCCN(c2csc3cc(F)ccc23)CC1)Nc1cc(C(F)(F)F)ccc1Cl
3 | 137 | O=C(NC[C@@H]1C[C@H]1CN1CCCN(c2csc3cc(F)ccc23)CC1)Nc1ccc(OC(F)(F)F)cc1 (relative stereo)
4 | 66.5 | O=C(NCCCn1ccnc1)NC[C@@H]1C[C@H]1CN1CCC(c2noc3ccsc23)CC1 (relative stereo)
5 | 172 | O=C(NCCN1CCOCC1)NC[C@@H]1C[C@H]1CN1CCC(c2noc3ccsc23)CC1 (relative stereo)
6 | 142 | O=C(NCCCCN1CCCN(c2noc3ccsc23)CC1)Nc1cccc(Br)c1
7 | 21.9 | O=C(NC[C@@H]1C[C@H]1CN1CCN(c2csc3cc(C(F)(F)F)ccc23)CC1)Nc1cccc2ccccc12
8 | 34.4 | O=C(NCCOc1ccccc1)NC[C@@H]1C[C@H]1CN1CCN(c2csc3cc(C(F)(F)F)ccc23)CC1
9 | 8.12 | O=C(NCCCN1CCOCC1)NC[C@@H]1C[C@H]1CN1CCN(c2csc3cc(C(F)(F)F)ccc23)CC1
10 | 0.0636 | CCOc1ccc(NC(=O)NCCCCN2CCCN(c3csc4cc(F)ccc34)CC2)cc1

Same assay, conditions: read-out: d3Ki; Table III

Row | Ki [nM] | SMILES
11 | 24.2 | CCc1ccc(NC(=O)NCCCCN2CCC(c3noc4ccsc34)CC2)cc1 [816561]
12 | 17.1 | O=C(NCCCCN1CCN(c2c(Cl)sc3cc(F)ccc23)CC1)NC12CC3CC(CC(C3)C1)C2
